Values quoted from earlier work in publication PMC9355146, “Novel angiotensin-converting enzyme inhibitory peptides from tuna byproducts—milts: Preparation, characterization, molecular docking study, and antioxidant function on H2O2-damaged human umbilical vein endothelial cells” (Frontiers in Nutrition, 2022).

Protein sequences, listed by entry. Tags and fused reporters are not part of them. Residues count along the entry.
UniProt G1TYT4, 1-1284: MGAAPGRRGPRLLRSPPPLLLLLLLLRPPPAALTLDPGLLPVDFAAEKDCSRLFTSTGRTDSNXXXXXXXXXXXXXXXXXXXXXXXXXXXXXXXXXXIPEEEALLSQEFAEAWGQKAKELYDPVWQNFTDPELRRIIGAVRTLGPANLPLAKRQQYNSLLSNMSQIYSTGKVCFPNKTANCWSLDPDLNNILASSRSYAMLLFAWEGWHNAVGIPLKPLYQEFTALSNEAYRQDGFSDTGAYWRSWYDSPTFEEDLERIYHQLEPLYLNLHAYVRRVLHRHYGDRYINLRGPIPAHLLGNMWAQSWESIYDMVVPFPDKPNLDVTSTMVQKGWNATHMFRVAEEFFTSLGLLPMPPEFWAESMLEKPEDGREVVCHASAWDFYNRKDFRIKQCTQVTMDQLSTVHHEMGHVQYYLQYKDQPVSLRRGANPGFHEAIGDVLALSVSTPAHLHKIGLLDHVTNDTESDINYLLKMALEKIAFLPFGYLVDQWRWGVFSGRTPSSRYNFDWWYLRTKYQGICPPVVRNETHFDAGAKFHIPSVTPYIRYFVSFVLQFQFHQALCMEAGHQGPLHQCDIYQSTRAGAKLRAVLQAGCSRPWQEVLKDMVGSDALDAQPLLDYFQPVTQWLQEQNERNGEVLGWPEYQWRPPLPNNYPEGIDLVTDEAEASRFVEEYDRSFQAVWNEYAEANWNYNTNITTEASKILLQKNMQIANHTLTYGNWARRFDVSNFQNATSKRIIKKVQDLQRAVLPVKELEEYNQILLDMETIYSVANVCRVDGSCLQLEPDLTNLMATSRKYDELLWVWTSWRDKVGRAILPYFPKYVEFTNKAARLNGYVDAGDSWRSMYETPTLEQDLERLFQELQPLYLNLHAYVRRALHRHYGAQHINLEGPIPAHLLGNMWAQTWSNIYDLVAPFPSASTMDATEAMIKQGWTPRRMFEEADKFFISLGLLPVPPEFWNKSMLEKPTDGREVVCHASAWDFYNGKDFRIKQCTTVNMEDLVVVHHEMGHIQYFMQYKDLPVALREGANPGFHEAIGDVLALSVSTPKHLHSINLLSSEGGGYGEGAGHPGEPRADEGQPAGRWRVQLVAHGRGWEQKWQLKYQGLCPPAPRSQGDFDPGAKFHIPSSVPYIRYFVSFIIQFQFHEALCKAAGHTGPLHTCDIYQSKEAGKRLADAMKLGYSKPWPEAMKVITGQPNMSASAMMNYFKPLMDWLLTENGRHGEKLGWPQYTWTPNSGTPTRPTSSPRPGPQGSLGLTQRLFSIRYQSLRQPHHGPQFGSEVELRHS

Target: ACE (Oryctolagus cuniculus, UniProt G1TYT4)
Conditions: cited from earlier work

SMILES: CC(C)[C@H](N)C(=O)N[C@@H](CC(=O)O)C(=O)O
- IC50 on ACE (ACEi peptides from Antarctic krill): 5610 µg/mL (≈ 24.2 mM)

SMILES: CC(C)[C@H](N)C(=O)N[C@@H](C)C(=O)N1CCC[C@H]1C(=O)O
- IC50 on ACE (ACEi peptide from Ctenopharyngodon idella): 1710 µg/mL (≈ 5.99 mM)

Values after ≈ are worked out from the molar mass of the structure shown. Read-outs that look alike come from different tables or passages of the source.
